Legend:
[1] = molecular target: GABA-A receptor; alpha-1/beta-3/gamma-2 (Homo sapiens, UniProt P14867+P18507+P28472); test: Inhibition of [3H]Ro-151788 binding to human GABA A receptor (alpha-1-beta-3-gamma-2) stably expressed in L(tk-) cells.
[2] = molecular target: GABA-A receptor; alpha-5/beta-3/gamma-2 (Homo sapiens, UniProt P18507+P28472+P31644); test: Inhibition of [3H]Ro-151788 binding to human GABA A receptor (alpha-5-beta-3-gamma-2) stably expressed in L(tk-) cells.
[3] = molecular target: GABA-A receptor; alpha-3/beta-3/gamma-2 (Homo sapiens, UniProt P18507+P28472+P34903); test: Binding affinity by displacement of [3H]Ro-151788 from recombinant human gamma-aminobutyric-acid A receptor alpha3,beta3,gamma2 stably expressed in L cells
[4] = molecular target: GABA-A receptor; alpha-2/beta-3/gamma-2 (Homo sapiens, UniProt P18507+P28472+P47869); test: Displacement of [3H]Ro-151788 from human Gamma-aminobutyric acid A receptor alpha-2-beta-3-gamma-2 stably expressed in L(tk-) cells

Chains of the proteins cited; added tags and fusions are not shown. Residues count along the entry.
UniProt P14867, 28-456 limits assumed: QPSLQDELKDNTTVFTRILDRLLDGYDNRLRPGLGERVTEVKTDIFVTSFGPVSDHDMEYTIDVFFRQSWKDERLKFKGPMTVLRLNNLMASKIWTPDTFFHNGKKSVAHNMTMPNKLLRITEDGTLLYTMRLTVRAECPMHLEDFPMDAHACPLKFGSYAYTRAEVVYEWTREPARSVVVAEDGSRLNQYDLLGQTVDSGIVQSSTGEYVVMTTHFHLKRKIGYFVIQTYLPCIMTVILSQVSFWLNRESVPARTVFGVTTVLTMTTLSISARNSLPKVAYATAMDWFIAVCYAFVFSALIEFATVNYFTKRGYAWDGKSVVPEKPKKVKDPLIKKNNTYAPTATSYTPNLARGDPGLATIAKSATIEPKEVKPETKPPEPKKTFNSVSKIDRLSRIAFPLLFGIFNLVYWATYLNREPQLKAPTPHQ
UniProt P18507, 40-475 limits assumed: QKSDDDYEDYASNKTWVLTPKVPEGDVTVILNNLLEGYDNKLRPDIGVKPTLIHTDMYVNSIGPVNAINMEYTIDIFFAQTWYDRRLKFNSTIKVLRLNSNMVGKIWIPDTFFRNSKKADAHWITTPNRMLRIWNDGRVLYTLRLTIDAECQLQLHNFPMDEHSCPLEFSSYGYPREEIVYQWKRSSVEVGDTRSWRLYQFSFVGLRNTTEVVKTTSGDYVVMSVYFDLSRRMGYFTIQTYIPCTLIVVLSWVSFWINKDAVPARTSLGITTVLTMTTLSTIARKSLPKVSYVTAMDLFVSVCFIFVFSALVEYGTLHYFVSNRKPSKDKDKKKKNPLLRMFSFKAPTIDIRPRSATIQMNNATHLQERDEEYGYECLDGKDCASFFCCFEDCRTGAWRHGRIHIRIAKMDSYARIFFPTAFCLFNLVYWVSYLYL
UniProt P28472, 26-473 limits assumed: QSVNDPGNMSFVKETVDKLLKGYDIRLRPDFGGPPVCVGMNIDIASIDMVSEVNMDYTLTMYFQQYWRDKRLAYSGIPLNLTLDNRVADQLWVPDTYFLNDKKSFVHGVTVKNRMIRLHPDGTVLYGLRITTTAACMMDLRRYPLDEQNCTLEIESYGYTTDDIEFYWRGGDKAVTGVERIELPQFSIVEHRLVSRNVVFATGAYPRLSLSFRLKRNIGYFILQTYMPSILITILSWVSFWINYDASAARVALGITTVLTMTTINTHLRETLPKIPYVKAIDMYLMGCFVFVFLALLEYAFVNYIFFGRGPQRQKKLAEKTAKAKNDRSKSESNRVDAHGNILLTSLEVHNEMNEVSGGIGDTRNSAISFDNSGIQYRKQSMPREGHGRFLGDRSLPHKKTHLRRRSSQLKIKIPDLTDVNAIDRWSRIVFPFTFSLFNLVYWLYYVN
UniProt P31644, 32-462 limits assumed: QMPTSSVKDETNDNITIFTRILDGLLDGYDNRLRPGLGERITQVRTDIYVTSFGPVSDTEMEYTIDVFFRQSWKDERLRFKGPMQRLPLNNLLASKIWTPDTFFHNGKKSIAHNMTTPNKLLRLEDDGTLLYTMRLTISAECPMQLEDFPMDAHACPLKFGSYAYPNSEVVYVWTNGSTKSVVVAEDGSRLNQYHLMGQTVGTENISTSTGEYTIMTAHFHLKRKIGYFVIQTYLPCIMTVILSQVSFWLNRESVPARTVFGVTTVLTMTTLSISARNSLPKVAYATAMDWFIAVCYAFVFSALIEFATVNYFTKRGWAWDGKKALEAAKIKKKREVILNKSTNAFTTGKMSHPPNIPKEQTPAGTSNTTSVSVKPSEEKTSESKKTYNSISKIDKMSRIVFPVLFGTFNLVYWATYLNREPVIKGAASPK
UniProt P34903, 29-492 limits assumed: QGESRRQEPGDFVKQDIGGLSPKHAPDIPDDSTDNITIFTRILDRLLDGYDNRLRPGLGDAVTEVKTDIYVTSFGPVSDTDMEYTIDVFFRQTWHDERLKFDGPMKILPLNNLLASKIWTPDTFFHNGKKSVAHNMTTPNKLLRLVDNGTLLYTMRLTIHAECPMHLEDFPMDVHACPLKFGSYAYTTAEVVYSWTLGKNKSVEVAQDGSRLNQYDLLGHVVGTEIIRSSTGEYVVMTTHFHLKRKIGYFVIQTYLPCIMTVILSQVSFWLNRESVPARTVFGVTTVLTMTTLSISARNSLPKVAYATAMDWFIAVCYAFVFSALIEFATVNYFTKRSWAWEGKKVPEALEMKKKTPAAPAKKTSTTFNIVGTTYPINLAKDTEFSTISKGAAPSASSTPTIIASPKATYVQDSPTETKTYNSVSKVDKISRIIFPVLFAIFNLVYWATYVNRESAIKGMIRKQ
UniProt P47869, 29-451 limits assumed: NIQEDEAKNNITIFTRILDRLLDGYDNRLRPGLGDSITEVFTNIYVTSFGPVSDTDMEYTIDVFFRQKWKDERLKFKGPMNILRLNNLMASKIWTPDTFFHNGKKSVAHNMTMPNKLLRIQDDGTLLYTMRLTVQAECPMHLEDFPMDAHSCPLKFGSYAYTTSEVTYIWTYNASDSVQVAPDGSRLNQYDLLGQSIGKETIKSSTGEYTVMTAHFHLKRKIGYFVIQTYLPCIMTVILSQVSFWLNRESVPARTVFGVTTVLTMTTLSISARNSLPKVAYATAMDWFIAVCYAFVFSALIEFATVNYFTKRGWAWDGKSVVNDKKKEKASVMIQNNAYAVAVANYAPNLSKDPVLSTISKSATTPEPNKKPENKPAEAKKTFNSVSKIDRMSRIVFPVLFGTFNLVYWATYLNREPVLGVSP

CNC1=Nc2ccc(Cl)cc2C(c2ccccc2)=[N+]([O-])C1
Ki [1]: 560 nM | Ki [2]: 320 nM | Ki [3]: 275 nM | Ki [4]: 460 nM

— ChEMBL document CHEMBL1136055, “3-Heteroaryl-2-pyridones: benzodiazepine site ligands with functional delectivity for alpha 2/alpha 3-subtypes of human GABA(A) receptor-ion channels” (J Med Chem, 2002)
